This assay has as its target Mitogen-activated protein kinase 10 (Homo sapiens, UniProt P53779). The assay is described as follows: JNK Kinase Assay.

Protein sequences, listed by entry. Tags and fused reporters are not part of them. Lines headed by an entry give the natural chain unless they say otherwise; changes in a name come on top.
UniProt P53779: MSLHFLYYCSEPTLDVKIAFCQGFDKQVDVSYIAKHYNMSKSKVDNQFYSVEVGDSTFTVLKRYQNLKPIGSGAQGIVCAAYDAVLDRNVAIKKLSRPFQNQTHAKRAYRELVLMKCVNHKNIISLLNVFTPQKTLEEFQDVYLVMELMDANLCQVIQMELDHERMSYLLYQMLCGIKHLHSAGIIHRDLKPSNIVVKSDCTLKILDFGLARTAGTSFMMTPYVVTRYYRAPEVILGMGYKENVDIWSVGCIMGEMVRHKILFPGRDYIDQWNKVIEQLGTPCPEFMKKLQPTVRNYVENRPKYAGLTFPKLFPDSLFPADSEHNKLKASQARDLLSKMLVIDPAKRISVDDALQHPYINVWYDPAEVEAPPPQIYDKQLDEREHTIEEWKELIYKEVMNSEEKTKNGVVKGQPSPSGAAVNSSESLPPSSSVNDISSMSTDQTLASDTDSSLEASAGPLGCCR

Molecules are shown by their SMILES.

The compound `Cc1cc(NC(=O)c2cccc(NC(=O)/C=C/CN(C)C)c2)ccc1Nc1nccc(-c2cccnc2)n1` [JNK-IN-8] yielded a concentration for half-maximal inhibition (IC50) of 0.98 nM.

Source of the values: BindingDB's records for doi:10.1016/j.chembiol.2011.11.010 (Harvard Medical School, 2012).
